# From patent US9815836B2, “Macrocyclic compounds as IRAK1/4 inhibitors and uses thereof” (Merck Patent GmbH, priority 2015, dated 2017)
# The chains behind the UniProt entries cited, without tags or fusion partners. Residues count along the entry.
# UniProt P51617, 194-712: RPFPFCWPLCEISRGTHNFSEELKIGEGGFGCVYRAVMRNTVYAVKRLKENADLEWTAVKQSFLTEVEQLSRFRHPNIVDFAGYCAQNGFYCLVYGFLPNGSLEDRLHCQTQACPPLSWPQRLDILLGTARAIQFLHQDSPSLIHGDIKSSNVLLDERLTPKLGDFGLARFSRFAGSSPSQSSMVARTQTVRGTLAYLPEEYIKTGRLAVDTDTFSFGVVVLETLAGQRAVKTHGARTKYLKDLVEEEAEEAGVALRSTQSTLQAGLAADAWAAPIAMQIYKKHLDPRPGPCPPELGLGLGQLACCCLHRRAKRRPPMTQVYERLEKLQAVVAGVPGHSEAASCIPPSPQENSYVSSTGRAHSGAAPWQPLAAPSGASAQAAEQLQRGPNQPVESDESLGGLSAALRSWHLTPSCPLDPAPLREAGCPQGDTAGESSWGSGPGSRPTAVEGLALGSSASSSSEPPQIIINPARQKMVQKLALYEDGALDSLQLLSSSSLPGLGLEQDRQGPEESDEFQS
# Target: IRAK1 (Homo sapiens (Human), UniProt P51617)
# Experiment: IRAK1 enzymatic assay (ADP-Glo luminescence)
# Assay type: biochemical
# Details: human purified recombinant His-TEV-IRAK1 (194-712), ATP 1 μM
# Description: In this assay, IRAK1 hydrolyses ATP and autophosphorylates. Measurement of IRAK-1 inhibition is performed in 384-well format based on luminescence assay (ADP-Glo™ Kinase Assay from Promega). Purified human recombinant IRAK1 ([…]) and serial diluted compounds in DMSO (range of concentration from 10 μM to 0.5 nM) or controls (1% DMSO) are incubated for 15 minutes at RT in assay buffer containing 50 mM Hepes pH 7.0, Fatty acid-free BSA 0.1%, Dithiothreitol (DTT) 2 mM, MgCl2 10 mM, EGTA 0.5 mM, Triton X-100 0.01%. The kinase reaction is then initiated by the addition of ATP at a concentration of 1μM. After 2 hours of incubation at RT, the reaction is stopped and the unconsumed ATP depleted by the addition of ADP-Glo™ Reagent according to supplier instructions. After 40 minutes of incubation at RT, the Kinase Detection Reagent is then added to the assay plate according to supplier instructions. After 20 minutes of incubation at RT, the luminescence signal is measured with a luminometer (PerkinElmer Envision or equivalent reader).
substance,measurement,value
"(9E)-17-methyl-4,5,13,16, 17,20,26-heptaazatetracyclo[20.3.1.1^2,^5.0^1^5,^1^9]heptacosa-1(25),2(27),3,9,15,18,22(26),23-octaene-14,21-dione [Compound 34]",IC50,100 to 1000 nM
